# scFv variants of Ab-14 (heavy chain) against a SARS-CoV-2 spike peptide

Values reported by Li et al. 2023, doi:10.1038/s41467-023-39022-2 (FLAb copy).

Binding partner: SARS-CoV-2 spike HR2 peptide, sequence PDVDLGDISGINAS.

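The parent was found by panning a naive human phage display library on the peptide. Designed CDR sequences, proposed from the first random library and measured here. Group labels follow the data file (Ctrl: baseline library sampled from a position-specific scoring matrix, with some repeated check sequences; Rand: our label for a block that the file lists under HC and that is probably the random mutants of the ten best first-round binders; GP: Gaussian process model; GPLM: also part of the Gaussian process libraries; HC: hill climbing; Gen: genetic algorithm; Gibbs: Gibbs sampling; a sequence that several methods proposed may carry one label only). Affinity was read by AlphaSeq, a pooled yeast mating assay with surface-displayed partners. Mating (16 h, 30 °C) was followed by selection of diploids and sequencing of their barcodes. Scores were corrected for input abundance and mapped to Kd with protein pairs of known affinity run in the same pool. Each pool was mated in six replicate cultures.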

The variants keep the light chain, the linker and the frameworks of Ab-14 (scFv order VH, three GGGGS repeats, VL).
VH: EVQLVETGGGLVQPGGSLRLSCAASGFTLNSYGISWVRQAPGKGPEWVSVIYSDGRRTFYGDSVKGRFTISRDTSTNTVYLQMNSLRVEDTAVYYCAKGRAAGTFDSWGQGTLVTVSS
VL: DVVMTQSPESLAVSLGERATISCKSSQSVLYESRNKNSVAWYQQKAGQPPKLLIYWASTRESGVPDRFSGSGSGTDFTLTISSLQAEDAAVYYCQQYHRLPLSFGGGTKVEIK

Each variant is given by its three heavy chain CDRs, as the data file delimits them; those of the parent are GFTLNSYGIS, VIYSDGRRTFYGDSVK, GRAAGTFDS.
Variants here have at most six changes.
Affinities are written as log10 Kd with Kd in nM; a lower number is a better binder.
The mean shown is taken over the replicates in which the pair was detected.
A pair that was not seen in any replicate is written "nd"; this usually means weak binding, but a binder can also be missed.
A sequence measured in both rounds can read differently, since the two assays cover different ranges.
Empty control strains, which show no peptide, gave a signal in 1% of pairings with all heavy chain designs; the median was 2.08 and 95% of these signals were weaker than 0.84. No background was subtracted. The control count says in how many pairings with the empty strains this scFv gave a signal.
The authors averaged sequences with at least three values out of six and counted those with two or fewer as poor binders.

The variant GFTLESYGIS | VIYSDGRRTFYADMVK | GRAAGTFDS [GP_Gibbs] gave 2.23 (5 of 6 replicates; controls 0 of 18). The variant GFHLNDYGIS | VIYSDGRRTFYIDSVK | GRCAGTFDS [GP_HC] gave nd (0 of 6 replicates; controls 0 of 18). For GFTLNEYGIS | VIYSDGRRTFYTDSVK | GRFAGTCDS [Rand], the assay gave nd (0 of 6 replicates; controls 0 of 18). With GFDLNSYGIS | VIYSDGRRTFYGDSVK | GETAGTFDS [GPLM_Gibbs] the result was 0.08 (6 of 6 replicates; controls 3 of 18). The variant GFQLNEYGIS | VIYSDGRRTFYSDSVK | GRQAGTFDS [GP_Gibbs] showed 0.10 (6 of 6 replicates; controls 0 of 18). For GFELNDYGIS | VIYSDGRRTEYCDSVK | GRAAGTFDS [GP_HC], the assay gave 2.11 (3 of 6 replicates; controls 1 of 18). For GFLLNDYGIS | VIYSDGRRTFYGDSVK | GTAAGTFDS [GP_HC], the assay gave 0.70 (6 of 6 replicates; controls 0 of 18). With GFELNSYGIS | VIYSDGRRSFYGDSVK | GRQAGTFDS [GP_Gibbs] the result was 1.40 (4 of 6 replicates; controls 0 of 18).

The variant GFSLNNYGIS | VIYSDGRRTFYTDSVK | GRQAGTFDS [GPLM_Gibbs] showed 0.40 (6 of 6 replicates; controls 0 of 18). The variant GFQLNEYGIS | VIYSDGRRTFYGDSVK | GHAAGTFDL [GP_Gen] showed 0.26 (6 of 6 replicates; controls 0 of 18). The variant GFDLNMYGIS | VIYSDGRRTFYADSVK | GRTAGTFDS [GPLM_Gibbs] showed 0.03 (6 of 6 replicates; controls 0 of 18). With GFDLNTYGIS | VIYSDGRRTAYQDSVK | GRAAGTFDS [GP_Gibbs] the result was -1.01 (4 of 6 replicates; controls 0 of 18). The variant GFSLNSYGIS | VIYSDGRRTFYGDSVK | GQVAGTFDT [GPLM_Gibbs] showed 0.35 (6 of 6 replicates; controls 0 of 18). The variant GFELNSYGIS | VIYSDGRRTFYGDSVK | GGQAGTFDT [GP_Gibbs] gave 0.93 (6 of 6 replicates; controls 0 of 18). With GFALNEYGIS | VIYSDGRRTFYTDSVK | GRFAGTFDS [GPLM_HC] the result was 0.68 (6 of 6 replicates; controls 0 of 18). The variant GFTLNSYGIS | VIYSDGRRTFYGDSVK | GQQAGTFTS [Ctrl] gave nd (0 of 6 replicates; controls 0 of 18).

For GFTLNDYGIS | VIYSDGRRTFYGDSVK | GRAAGTFED [GP_HC], the assay gave 1.26 (6 of 6 replicates; controls 0 of 18). The variant GFTINQYGIS | VIYSDGRRTFYGDSVK | AREAGTWDS [Ctrl] showed nd (0 of 6 replicates; controls 0 of 18). The variant GFDLNSYGIS | VIYSDGRRTFYGDSVK | GRAAGKFWS [GP_HC] gave nd (0 of 6 replicates; controls 0 of 18). With GFTLNSYGIS | VIYSDGFRTFYEDSVK | GREAGTFDS [Ctrl] the result was 1.82 (5 of 6 replicates; controls 0 of 18). For GFTLNSYGIS | VIYSDGVRTFYSDSVK | GRQAGTFDS [GPLM_Gibbs], the assay gave 0.46 (6 of 6 replicates; controls 2 of 18). The variant GFGLNSYGIS | VIYSDGRRTAYGDSVK | GRTAGTFDS [GP_Gen] showed -0.46 (6 of 6 replicates; controls 0 of 18). The variant GFDLNTYGIS | VIYSDGRRTFYIDSVK | GKAAGTFDS [GPLM_Gibbs] showed 0.15 (6 of 6 replicates; controls 0 of 18). With GFTLNEYGIS | VIYSDGRRHFYGQSVK | GRAAGTFDS [Ctrl] the result was nd (0 of 6 replicates; controls 0 of 18).

For GFKLNSYGIS | VIYSDGRRTFYADSVK | GRAAGTFDS [Ctrl], the assay gave 2.46 (6 of 6 replicates; controls 0 of 18). The variant GFDLNSYGIS | VIYSDGRRTFYHDSVK | GQAAGTFDS [GPLM_HC] showed 0.33 (6 of 6 replicates; controls 1 of 18). The variant GFTLLSYGIS | VIYADGRRTFYQDKVR | GREAGTFDS [Ctrl] showed 1.54 (6 of 6 replicates; controls 0 of 18). The variant GFTLNSYGIS | VIYSDGRRTFYGDSFK | GAAAGKFDS [Ctrl] gave nd (0 of 6 replicates; controls 0 of 18). For GFTLTSPGIS | VIYSDGRRTFYGDSVK | GRAAGTFDT [Ctrl], the assay gave -0.26 (6 of 6 replicates; controls 0 of 18). The variant GFELNSYGIS | VIYSDGRRTFYSDAVK | GKTAGTFDS [GP_Gibbs] gave -0.01 (6 of 6 replicates; controls 1 of 18). With GFSLNSYGIS | VIYSDGRRTFYKDSVK | GRVAGTFDS [GPLM_Gen] the result was 0.39 (6 of 6 replicates; controls 0 of 18). The variant GFTLDSYGIS | VIYSDGRRTFYDDSVK | GQEAGTFDS [GP_HC] gave nd (0 of 6 replicates; controls 0 of 18).

The variant GFELNSYGIS | VIYADGRRTFYSDSVK | GGAAGTFDS [Ctrl] showed -0.15 (6 of 6 replicates; controls 0 of 18). The variant GFSLNTYGIS | VIYSDGRRTFYGDSVK | GRVAGTFDS [GPLM_Gen] gave 1.73 (4 of 6 replicates; controls 0 of 18).

Picked from the list: the 3 lowest averages where every replicate gave a value.

For GFGLNSYGIS | VIYSDGRRTAYGDSVK | GRTAGTFDS [GP_Gen], the assay gave -0.46 (6 of 6 replicates; controls 0 of 18).
For GFTLTSPGIS | VIYSDGRRTFYGDSVK | GRAAGTFDT [Ctrl], the assay gave -0.26 (6 of 6 replicates; controls 0 of 18).
For GFELNSYGIS | VIYADGRRTFYSDSVK | GGAAGTFDS [Ctrl], the assay gave -0.15 (6 of 6 replicates; controls 0 of 18).